The source of these data is patent US9617267B2, “Compounds and methods for kinase modulation, and indications therefor” (Plexxikon Inc., priority 2009, dated 2017).

Amino acid sequences for entries named in this document (tags omitted).
UniProt P11712, whole entry: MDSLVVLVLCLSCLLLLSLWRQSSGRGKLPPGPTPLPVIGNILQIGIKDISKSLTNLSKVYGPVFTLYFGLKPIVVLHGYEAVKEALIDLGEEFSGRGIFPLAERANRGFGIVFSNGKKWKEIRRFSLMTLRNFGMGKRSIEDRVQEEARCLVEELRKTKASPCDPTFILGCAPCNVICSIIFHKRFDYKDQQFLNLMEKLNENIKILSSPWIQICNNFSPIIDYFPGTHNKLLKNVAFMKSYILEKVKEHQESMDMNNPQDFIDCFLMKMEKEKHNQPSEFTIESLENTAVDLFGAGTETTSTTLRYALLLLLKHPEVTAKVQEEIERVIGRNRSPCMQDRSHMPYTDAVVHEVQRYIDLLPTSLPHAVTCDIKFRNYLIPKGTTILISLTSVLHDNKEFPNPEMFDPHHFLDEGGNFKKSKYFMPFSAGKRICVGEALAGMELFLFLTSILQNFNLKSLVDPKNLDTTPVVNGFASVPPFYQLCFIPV
UniProt P08684, whole entry: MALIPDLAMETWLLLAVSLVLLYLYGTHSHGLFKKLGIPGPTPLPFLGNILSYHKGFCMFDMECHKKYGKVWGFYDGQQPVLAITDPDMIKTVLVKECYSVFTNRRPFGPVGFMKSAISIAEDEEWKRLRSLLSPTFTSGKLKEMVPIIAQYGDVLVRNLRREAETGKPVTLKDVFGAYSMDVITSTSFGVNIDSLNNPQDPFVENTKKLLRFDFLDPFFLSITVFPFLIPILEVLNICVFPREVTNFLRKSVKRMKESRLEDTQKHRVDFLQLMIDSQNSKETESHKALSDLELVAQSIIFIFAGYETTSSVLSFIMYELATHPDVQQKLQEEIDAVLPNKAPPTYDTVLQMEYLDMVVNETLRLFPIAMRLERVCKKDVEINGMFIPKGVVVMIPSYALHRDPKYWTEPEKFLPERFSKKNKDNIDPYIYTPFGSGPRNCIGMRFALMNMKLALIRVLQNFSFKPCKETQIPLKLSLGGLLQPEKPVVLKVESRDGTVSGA
UniProt P05177, whole entry: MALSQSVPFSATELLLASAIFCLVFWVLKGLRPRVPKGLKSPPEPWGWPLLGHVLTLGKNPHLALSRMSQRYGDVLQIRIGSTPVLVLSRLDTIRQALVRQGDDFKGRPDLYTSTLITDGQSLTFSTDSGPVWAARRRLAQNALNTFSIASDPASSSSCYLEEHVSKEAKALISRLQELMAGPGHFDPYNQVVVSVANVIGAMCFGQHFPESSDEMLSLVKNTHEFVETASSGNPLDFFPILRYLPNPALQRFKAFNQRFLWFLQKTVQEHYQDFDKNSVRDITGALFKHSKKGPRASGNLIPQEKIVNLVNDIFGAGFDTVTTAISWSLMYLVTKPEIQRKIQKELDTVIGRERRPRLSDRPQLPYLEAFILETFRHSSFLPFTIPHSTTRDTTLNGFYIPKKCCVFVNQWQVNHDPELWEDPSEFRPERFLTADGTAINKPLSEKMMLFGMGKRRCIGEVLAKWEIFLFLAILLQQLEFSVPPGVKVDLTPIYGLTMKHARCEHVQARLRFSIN

Data set [1] addresses CYP2C9 (Homo sapiens (Human), UniProt P11712). Description: CYP enzyme inhibition, fluorescent substrate (MFC). The settings on record: read-out: Cyp IC50 2C9. The procedure: (§1) CYP (Cytochrome P450) enzymes are the major drug metabolizing enzymes present in the liver. The inhibition of CYP enzyme activity (IC50) for each of CYP1A2, CYP2C19, CYP2C9, CYP2D6, CYP3A4(BFC) and CYP3A4(BQ) is determined for compounds, where inhibition of metabolism of a known substrate leads to a decrease in the fluorescence of the metabolized product. The fluorescence of the product is monitored as a function of compound concentration.
(§2) Compounds are dissolved in dimethyl sulfoxide to a concentration of 100 mM. These are diluted 1 μL into 82 μL of acetonitrile. […] These are then serially diluted 1:1 (160 μL to 160 μL co-factor mix) for a total of 10 points. A 10 μL aliquot of this final mixture is dispensed into 384 well assay plates and incubated for 10 minutes at 37° C. […] Assay plates are incubated at 37° C. […] The signal versus compound concentration is used to determine the IC50. The enzymes and substrates for this assay are obtained from BD Biosciences.

Data set [2] concerns the target CYP3A4(BFC) (Homo sapiens (Human), UniProt P08684). Put plainly: CYP enzyme inhibition, fluorescent substrate BFC. The settings on record: read-out: Cyp IC50 3A4(BFC). The method, then:
as §1, §2

The target in data set [3] is CYP1A2 (Homo sapiens (Human), UniProt P05177). Description: CYP enzyme inhibition, fluorescent substrate (CEC). The settings on record: read-out: Cyp IC50 1A2. The procedure: as §1
Compounds are dissolved in dimethyl sulfoxide to a concentration of 100 mM. These are diluted 1 μL into 82 μL of acetonitrile. An 11 μL aliquot of this solution is then added to 204 μL of cofactor mix (1.3% NADPH Regeneration system Solution A, 1.04% NADPH Regeneration system Solution B from BD Biosciences, 5% acetonitrile and 0.05% dimethyl sulfoxide). These are then serially diluted 1:1 (160 μL to 160 μL co-factor mix) for a total of 10 points. A 10 μL aliquot of this final mixture is dispensed into 384 well assay plates and incubated for 10 minutes at 37° C. […] (CYP1A2-15 min; CYP2C9-45 min; CYP2C19, 2D6 and 3A4-30 min) and read in a Tecan Safire 2 plate reader (CYP1A2, 2C19 and 3A4 409 ex/460 em; CYP2C9 and 2D6 409 ex/530 em). […]

As usually defined, the IC50 is the concentration that gives 50% inhibition. Take `CCCS(=O)(=O)Nc1ccc(F)c(C(=O)c2c[nH]c3nccc(NC4CCOCC4)c23)c1F` [P-2013, Propane-1-sulfonic acid {2,4-difluoro-3-[4-(tetrahydro-pyran-4-ylamino)-1H-pyrrolo[2,3-b]pyridine-3-carbonyl]-phenyl}-amide]: the IC50 in data set [1] was greater than 10 µM.

For `CCCS(=O)(=O)Nc1ccc(F)c(C(=O)c2c[nH]c3ncnc(CC(C)C)c23)c1F` [P-1014, Propane-1-sulfonic acid [2,4-difluoro-3-(4-isobutyl-7H-pyrrolo[2,3-d]pyrimidine-5-carbonyl)-phenyl]-amide], the IC50 in data set [2] and in data set [3] was greater than 10 µM each time.
